The record followed here is PMC10823479 (Journal of Medicinal Chemistry, 2024).

Sequences of proteins named here, by UniProt entry; tags and fusion partners are left off. A change or cut given only in a name is not applied to a line headed by its entry.
UniProt Q9Y5N1: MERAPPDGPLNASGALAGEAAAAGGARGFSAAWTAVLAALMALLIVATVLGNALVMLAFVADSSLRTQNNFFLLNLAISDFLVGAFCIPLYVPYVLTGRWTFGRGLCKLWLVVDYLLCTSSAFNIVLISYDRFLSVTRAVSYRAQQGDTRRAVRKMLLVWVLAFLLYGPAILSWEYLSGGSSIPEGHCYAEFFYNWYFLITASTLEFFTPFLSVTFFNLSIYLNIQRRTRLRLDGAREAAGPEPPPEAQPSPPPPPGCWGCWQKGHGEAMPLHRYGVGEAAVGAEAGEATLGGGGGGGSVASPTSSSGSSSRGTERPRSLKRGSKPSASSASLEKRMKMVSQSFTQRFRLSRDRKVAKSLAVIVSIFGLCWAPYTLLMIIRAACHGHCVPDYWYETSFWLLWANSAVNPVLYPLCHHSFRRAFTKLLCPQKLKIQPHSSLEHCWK

The assay addresses human histamine H3 receptor (Homo sapiens, UniProt Q9Y5N1). The conditions noted are these: read-out: % of control specific binding, H3; 1 µM.

Regarding (R)-(−)-α-Methylhistamine, the inhibition is 99%.
